# Details: for Serum anion gap: day 12 and washout; for Serum glucose: male baboons
Compound,Serum anion gap,Serum glucose
"CCN(CC)CCOc1ccc(/C(=C(\Cl)c2ccccc2)c2ccccc2)cc1 [Enclomid, trans-clomiphene]",raised this parameter towards normal values,no increases with treatment
"CCN(CC)CCOc1ccc(/C(=C(/Cl)c2ccccc2)c2ccccc2)cc1 [Zuclomid, cis-clomiphene, reference compound]",lower values than the Enclomid group,within the normal range

# Source: US7737185B2 (Repros Therapeutics Inc., priority 2001, dated 2010)
